Literature values, collected in patent US20250387404A1, “FORMULATIONS AND METHODS FOR TREATING EPIDERMOLYSIS BULLOSA SIMPLEX AND RELATED CONDITIONS” (RUTGERS, THE STATE UNIVERSITY OF NEW JERSEY, priority 2022, published 2025).

Details: phase 1b, newly diagnosed AML, 50 mg twice daily; cited from earlier work

Substance: 4′-N-benzoylstaurosporine [PKC412]
- safety of oral administration: administered safely with an acceptable side-effect profile
